Reference: patent publication US20020019394A1, “Bicyclic sulfonyl amino inhibitors of factor Xa” (priority 2000, published 2002)

Protein sequences, listed by entry. Tags and fused reporters are not part of them. Residues count along the entry.
UniProt P00742, 41-179 limits assumed: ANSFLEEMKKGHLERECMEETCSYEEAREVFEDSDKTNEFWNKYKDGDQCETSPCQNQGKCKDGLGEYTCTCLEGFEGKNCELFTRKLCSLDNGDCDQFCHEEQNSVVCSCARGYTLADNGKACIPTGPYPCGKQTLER
UniProt P00742, 235-488 limits assumed: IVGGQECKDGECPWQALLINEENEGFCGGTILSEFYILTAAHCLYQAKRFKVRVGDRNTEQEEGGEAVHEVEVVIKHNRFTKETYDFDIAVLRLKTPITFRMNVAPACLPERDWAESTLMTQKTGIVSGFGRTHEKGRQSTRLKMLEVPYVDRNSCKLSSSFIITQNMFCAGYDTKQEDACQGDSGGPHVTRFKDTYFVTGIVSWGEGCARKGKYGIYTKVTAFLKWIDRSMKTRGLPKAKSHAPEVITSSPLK

Assays:
prothrombinase complex = prothrombinase complex (Homo sapiens, UniProt P00742); assay: Prothrombinase inhibition assay, plasma free system; type: biochemical; settings: Table 4
Experimental: The prothrombinase inhibition assay is performed in a plasma free system with modifications to the method described by Sinha, U. et al., Thromb. […] Specifically, the activity of the prothrombinase complex is determined by measuring the time course of thrombin generation using the p-nitroanilide substrate Chromozym TH. […] Aliquots from the complex-inhibitor mixture are added to prothrombin (1 nM) and Chromozym TH (0.1 mM). […] Eight different concentrations of inhibitor are assayed in duplicate. A standard curve of thrombin generation by an equivalent amount of untreated complex is used for determination of percent inhibition.

factor Xa = factor Xa (Homo sapiens, UniProt P00742); assay: Factor Xa amidolytic assay (chromogenic substrate S-2765)

IC50 (prothrombinase complex): > 11000 nM
IC50 (factor Xa): 6.29 µM
Structure (SMILES): CC(=N)N1CCC(Oc2ccc(N(Cc3cc(C)nn3-c3cccc(C(=N)N)c3)S(C)(=O)=O)cc2)CC1 [Compound 16]
